Patent publication US12383555B2, “Methods of treating cancers” (Foghorn Therapeutics Inc., priority 2020, dated 2025)

Test system: AML cell lines (OCIAML5)
Assay: Cancer cell line growth inhibition (Cell-titer glo, GI50, day 3 and day 7), compound 17
Assay type: cell-based
Conditions: compound 17, 0 to 10 micromolar

## CSCC[C@H](NC(=O)c1ccc(N)cc1)C(=O)Nc1nc(-c2cccc(-c3ccncc3)c2)cs1 [Compound 17, 4-amino-N-[(1S)-3-methylsulfanyl-1-[[4-[3-(4-pyridyl)phenyl]thiazol-2-yl]carbamoyl]propyl]benzamide]
  Sensitivity of the AML cell line relative to the other tested cell lines (GI50, FIG. 1): more sensitive to BRG1/BRM inhibition than the other tested cell lines
